Conditions: 10 mM phosphate buffer, 8 mg/ml, 37° C.

8-arm-PEG20KDa-Quinidine α-methylbutanoate [quinidine conjugate]
half-life for hydrolysis: 46 h

Source: patent publication US8183338B2, “Sterically hindered poly(ethylene glycol) alkanoic acids and derivatives thereof” (Nektar Therapeutics, priority 1999, dated 2012)
